From patent US10300036B2, “Compositions and methods for treating and preventing lung injury” (ARIZONA BOARD OF REGENTS on behalf of THE UNIVERSITY OF …, priority 2015, dated 2019)

System: NRF2 transcriptional activity
Experiment: mGst-ARE firefly/Renilla luciferase reporter gene assay in H1299 cells (KEAP1-WT or KEAP1-C151S)
Settings: H1299, 16 h; SF 5 μM, tBHQ 50 μM, As(III) 5 μM, bixin 40 μM

How did the “NRF2 transcriptional activity, KEAP1-C151S cells” value turn out when sodium arsenite was run?
Its value is “still able to induce”.
